{"source": "patent US8436019B2", "about": "“Sulfonyl-piperidin-4-yl methylamine amide analogs as GlyT1 inhibitors, methods for making same, and use of same in treating psychiatric disorders” (Vanderbilt University, priority 2009, dated 2013)", "target": "T1, GlyT1 (Homo sapiens, UniProt P48067)", "T1 construct": "Human placental choriocarcinoma cells endogenously expressing GlyT1; endogenous in cells; host or cells: JAR cells (human placental choriocarcinoma)", "T1 sequence (P48067 1-706)": "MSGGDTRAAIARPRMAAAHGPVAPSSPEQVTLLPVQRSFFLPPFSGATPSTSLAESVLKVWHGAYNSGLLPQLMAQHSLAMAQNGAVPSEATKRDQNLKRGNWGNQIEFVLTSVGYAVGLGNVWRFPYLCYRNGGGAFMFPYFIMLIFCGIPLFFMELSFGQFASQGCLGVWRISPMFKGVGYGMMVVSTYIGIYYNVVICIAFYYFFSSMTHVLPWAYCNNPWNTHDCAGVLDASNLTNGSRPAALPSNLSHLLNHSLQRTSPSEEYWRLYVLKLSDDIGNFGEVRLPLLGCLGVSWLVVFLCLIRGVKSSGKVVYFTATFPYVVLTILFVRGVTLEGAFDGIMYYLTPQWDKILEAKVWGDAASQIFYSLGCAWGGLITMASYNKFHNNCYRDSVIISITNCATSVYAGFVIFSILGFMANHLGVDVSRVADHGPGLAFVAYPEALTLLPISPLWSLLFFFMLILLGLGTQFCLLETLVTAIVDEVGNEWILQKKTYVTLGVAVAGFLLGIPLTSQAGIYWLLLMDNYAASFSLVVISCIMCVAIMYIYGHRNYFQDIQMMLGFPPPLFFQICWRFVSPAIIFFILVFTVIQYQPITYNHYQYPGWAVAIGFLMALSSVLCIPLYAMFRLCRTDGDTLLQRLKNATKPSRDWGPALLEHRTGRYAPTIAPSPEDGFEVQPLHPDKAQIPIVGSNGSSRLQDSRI", "experiment": "[14C]-glycine uptake inhibition in JAR cells (human placental choriocarcinoma cells endogenously expressing GlyT1)", "format": "cell-based", "settings": "inhibition of specific [14C]-glycine uptake; values in nM; read-out: Potency", "method": "Human placental choriocarcinoma cells endogenously expressing GlyT1 can be cultured using standard conditions. Cells can then be grown at 37° C. in a humidified atmosphere 40-48 hours before the assay. Culture medium can be removed from the culture plate, and cells can be incubated with an amount of TB1A buffer with or without the compounds of the present invention for a sufficient period of time. Then an amount of [^14C]-glycine diluted with TB1A can be added to each well. After incubation the microplates can be sealed and counted. Non-specific uptake of [^14C]-glycine can be determined in the presence of unlabeled glycine. To determine potencies, a range of concentrations of the compounds of the present invention can be added to the cells, followed by the fixed concentration of [^14C]-glycine. The concentration of the present compound that inhibited half of the specific uptake of [^14C]glycine (IC50 value) can be determined from the assay data by non-linear curve fitting.", "data": [{"compound": "Cn1cnc(S(=O)(=O)N2CCC(C(NC(=O)c3ccc(Cl)cc3Cl)c3cccs3)CC2)c1", "note": "(stereo not shown) [Compound 9c]", "values": [{"measurement": "IC50", "result": 374, "unit": "nM"}]}]}
